Tested on: Cells expressing PABPC1-DDR2
Settings: inhibitor final concentration 100 μM for 1 h; Bodipy-C12 1 μM; starvation; confocal microscopy; endogenously tagged PABPC1 HEK293T cell line

For N#CC(=C(/N)Sc1ccccc1N)/C(C#N)=C(\N)Sc1ccccc1N [Compound U-0126], the “Score (lipid effects, LD formation)” value was 0.
